Assay results reported in EP4700018A1, “NAV1.8 INHIBITORS, PREPARATION METHOD THEREFOR AND USE THEREOF” (Shanghai Institute of Materia Medica, Chinese Academy of …, priority 2023, dated 2024).

The chains behind the UniProt entries cited, without tags or fusion partners.
UniProt Q9Y5Y9, whole entry: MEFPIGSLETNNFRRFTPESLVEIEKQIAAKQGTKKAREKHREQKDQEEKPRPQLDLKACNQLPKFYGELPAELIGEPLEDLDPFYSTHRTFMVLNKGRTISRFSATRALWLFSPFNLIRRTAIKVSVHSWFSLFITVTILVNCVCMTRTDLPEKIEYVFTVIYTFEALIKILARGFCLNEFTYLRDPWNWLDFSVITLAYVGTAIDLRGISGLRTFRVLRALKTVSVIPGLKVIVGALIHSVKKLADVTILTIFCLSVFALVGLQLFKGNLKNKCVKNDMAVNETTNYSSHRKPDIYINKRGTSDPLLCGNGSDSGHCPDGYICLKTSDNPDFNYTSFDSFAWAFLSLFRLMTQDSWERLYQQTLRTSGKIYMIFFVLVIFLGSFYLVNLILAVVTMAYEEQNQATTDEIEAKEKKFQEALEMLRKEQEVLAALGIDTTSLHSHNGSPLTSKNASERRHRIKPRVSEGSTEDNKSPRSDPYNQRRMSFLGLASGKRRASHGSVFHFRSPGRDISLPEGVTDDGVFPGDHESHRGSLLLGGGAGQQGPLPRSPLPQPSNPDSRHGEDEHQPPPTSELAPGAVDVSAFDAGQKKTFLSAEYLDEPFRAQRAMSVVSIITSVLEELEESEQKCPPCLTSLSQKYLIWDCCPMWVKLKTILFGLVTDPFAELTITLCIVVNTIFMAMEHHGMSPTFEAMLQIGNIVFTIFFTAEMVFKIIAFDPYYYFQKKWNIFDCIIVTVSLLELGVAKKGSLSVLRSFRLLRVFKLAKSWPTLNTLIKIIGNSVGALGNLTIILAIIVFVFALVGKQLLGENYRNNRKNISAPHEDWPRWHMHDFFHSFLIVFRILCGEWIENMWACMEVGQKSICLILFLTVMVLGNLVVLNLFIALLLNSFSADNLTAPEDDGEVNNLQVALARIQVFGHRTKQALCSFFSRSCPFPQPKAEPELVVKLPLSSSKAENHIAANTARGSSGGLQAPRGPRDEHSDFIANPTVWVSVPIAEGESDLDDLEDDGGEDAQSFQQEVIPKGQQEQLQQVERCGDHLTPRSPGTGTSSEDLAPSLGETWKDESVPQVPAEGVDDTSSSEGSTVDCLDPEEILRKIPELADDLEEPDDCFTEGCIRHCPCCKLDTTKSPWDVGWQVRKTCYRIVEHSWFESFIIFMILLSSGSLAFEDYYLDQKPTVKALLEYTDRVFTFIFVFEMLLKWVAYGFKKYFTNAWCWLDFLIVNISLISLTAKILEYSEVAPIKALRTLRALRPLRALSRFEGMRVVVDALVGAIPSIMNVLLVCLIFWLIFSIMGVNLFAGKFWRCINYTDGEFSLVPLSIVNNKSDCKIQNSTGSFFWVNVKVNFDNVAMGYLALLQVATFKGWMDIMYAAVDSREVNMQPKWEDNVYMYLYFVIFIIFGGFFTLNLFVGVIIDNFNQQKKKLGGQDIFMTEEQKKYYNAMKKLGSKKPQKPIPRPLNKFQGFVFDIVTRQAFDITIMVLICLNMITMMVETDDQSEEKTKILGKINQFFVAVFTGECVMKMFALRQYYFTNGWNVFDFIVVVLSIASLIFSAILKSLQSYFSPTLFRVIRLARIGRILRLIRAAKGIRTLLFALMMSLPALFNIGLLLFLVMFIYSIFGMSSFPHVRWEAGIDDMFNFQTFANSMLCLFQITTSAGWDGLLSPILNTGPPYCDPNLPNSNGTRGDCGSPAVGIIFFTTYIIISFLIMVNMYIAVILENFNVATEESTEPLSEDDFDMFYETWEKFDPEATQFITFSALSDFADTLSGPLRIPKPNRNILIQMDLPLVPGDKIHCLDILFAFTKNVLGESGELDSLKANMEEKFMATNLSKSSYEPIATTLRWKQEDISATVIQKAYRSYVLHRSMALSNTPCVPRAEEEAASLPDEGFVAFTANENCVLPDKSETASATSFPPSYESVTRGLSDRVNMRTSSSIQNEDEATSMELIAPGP

Target: human Nav1.8 sodium channel (Homo sapiens, UniProt Q9Y5Y9)
Assay: Blocking activity on sodium channel 1.8 (Nav1.8), whole-cell manual patch clamp
Assay type: cell-based

Cc1cc(F)ccc1Oc1cc(C(F)(F)F)ccc1C(=O)Nc1cc[nH]c(=O)c1 [VX-150, reference compound]
IC50: 33.5 nM
